Source: PubChem BioAssay (several laboratories)
Arrestin-AP2 inh = blocks beta-arrestin peptide binding to AP2 adaptin; AID 504490; actives 0.31% (n = 340,000); inhibition, % at 10 µM; FITC-arrestin peptide / GST-AP2 beads, flow cytometry; AP2 beta2 appendage carries R879A mutation;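 active = inhibition above a set limit, near 3 SD of compounds lacking own fluorescence, cut at about 54% in these data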;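 note: plate controls were DMSO wells for no effect and 5 µM unlabelled arrestin peptide for full effect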
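Assay system: GST-AP2 R879A bound to glutathione beads, E. coli-expressed; Medium: PBS with 0.05% Tween 20 and 0.1% BSA; Also added: fluorescein-tagged arrestin peptide at 50 nM final; Timing: 12 min plus 1 h, RT; Measured by: flow cytometry, FL1 (488/535 nm); Evaluation: percent drop in bead-associated FITC signal.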
Rce1 inh = yeast Ras-converting enzyme inhibition | Q03530 | yeast membranes, quenched prenylated peptide cleavage fluorescence | calls only | actives 0.27% (n = 290,000) | AID 2563;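 active = fall in fluorescence gain of 50% or more versus controls, with final raw signal at or below 3038400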;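 note: plate controls were neutral control wells for no effect and wells lacking membranes for full effect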
UUG fidelity = yeast start codon fidelity modulation | S. cerevisiae UUG-firefly luciferase reporter, luminescence/redox ratio | activity score, % at 18.7 µM | 350,000 tested, 0.13% active;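 active = replicate mean at a twofold rise or more, about +100% in these data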;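 also: firefly luciferase made from a UUG start codon reports start codon fidelity; reporter light over untreated wells divided by growth signal over untreated wells; some hits fall short of that in this replicate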
Tb MetRS inh = Trypanosoma brucei MetRS inhibition | purified T. brucei MetRS, ATP depletion, Kinase-Glo luminescence | inhibition, % at 11.9 µM | actives 0.4% (n = 360,000);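 active = inhibition above a per-plate cutoff of the control wells' mean inhibition plus 3 SD, cut at about 5.5% in these data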;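 note: 0% = DMSO wells median and 100% = median of wells with control inhibitor compound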
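assay system = parasite MetRS enzyme | timing = 15 min preincubation, 2 h reaction, all 25 °C | evaluation = percent inhibition relative to median high and low control wells | medium = HEPES buffer containing pyrophosphatase, BSA, spermine, DTT | compound = single dose, 11.9 µM final nominal, 0.9% final DMSO | detection = Kinase-Glo luminescence, ATP depletion format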
DSG3 Ab inh = human desmoglein-3 autoantibody binding inhibition; AID 588358; actives 0.48% (n = 310,000); DSG3-coupled beads, scFv-anti-DSG3-GFP binding, flow cytometry; active compounds read low; binding (percent of control), % at 10 µM; P32926;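 active = binding more than 3 SD below its plate's average and above zero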;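 note: hits lower antibody fragment binding to DSG3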
An asterisk follows results filed as active; i = inactive; / = no result; + = active, no number. This is a sample that favours compounds with a hit; in the whole collection about 1.2% have one here.

1) Cc1c(Cl)cccc1NC(=O)CNC(=O)c1cn(-c2ccccc2)nc1-c1cccnc1
2) CCOC(=O)c1cn(-c2ccccc2)nc1-c1cccnc1
3) CCCCC/C(=N\NC(=O)Nc1ccccc1)c1ccccc1
4) CCC(=O)N1CCCCN2[C@H](CO)[C@H](c3ccc(-c4cccnc4)cc3)[C@@H]2C1
5) C[C@H]1COc2c(N3CCN(C)CC3)c(F)cc3c(=O)c(C(=O)O)cn1c23

| assay / compound | 1 | 2 | 3 | 4 | 5 |
| --- | --- | --- | --- | --- | --- |
| Arrestin-AP2 inh | -14.0 | 3.1 | 17.1 | / | 9.7 |
| Rce1 inh | / | i | i | / | + |
| UUG fidelity | -25.5 | -7.6 | / | -13.1 | 4.8 |
| Tb MetRS inh | 30.7* | -0.7 | -1.4 | / | -0.4 |
| DSG3 Ab inh | 101.9 | 112.1 | -11.9* | / | 93.3 |

6) Cc1cc(C)n2nc(CC(=O)NNC(=O)c3ccc(N(C)C)cc3)nc2n1
7) CO[C@H]1CN(C)C(=O)c2cc(NC(=O)CC(F)(F)F)ccc2OC[C@H](C)N(CCC(F)(F)F)C[C@@H]1C
8) Cc1ccc(/C=C/C(=O)OCC(=O)N(CC(C)C)c2c(N)n(Cc3ccccc3)c(=O)[nH]c2=O)o1
9) O=[N+]([O-])c1ccccc1C=CC=NN=Cc1ccccc1O
10) Oc1ccccc1C=NN=CC=Cc1ccccc1

| assay / compound | 6 | 7 | 8 | 9 | 10 |
| --- | --- | --- | --- | --- | --- |
| Arrestin-AP2 inh | 22.9 | / | 8.5 | 7.7 | 7.2 |
| Rce1 inh | + | / | / | / | / |
| UUG fidelity | -18.0 | -9.6 | 25.3 | / | / |
| Tb MetRS inh | -0.4 | / | -0.9 | -0.4 | 0.3 |
| DSG3 Ab inh | 96.7 | / | 91.9* | -3.9* | 92.1 |

A second format for some results above:
2	CCOC(=O)c1cn(-c2ccccc2)nc1-c1cccnc1
  Arrestin-AP2 inh: 3.1	Rce1 inh: i	UUG fidelity: -7.6	Tb MetRS inh: -0.7	DSG3 Ab inh: 112.1
5	C[C@H]1COc2c(N3CCN(C)CC3)c(F)cc3c(=O)c(C(=O)O)cn1c23
  Arrestin-AP2 inh: 9.7	Rce1 inh: +	UUG fidelity: 4.8	Tb MetRS inh: -0.4	DSG3 Ab inh: 93.3

The list continues:
11) CC(C)Cn1c(SCC(=O)Nc2ccc3[nH]c(=O)[nH]c3c2)nc2ccccc2c1=O
12) Cc1cc(SCC(=O)Nc2ccc3[nH]c(=O)[nH]c3c2)nc2ccccc12
13) CCC(C)C(=O)OCC1(c2ccc(C)cc2OC(=O)C(C)C)CO1 (stereo not given)
14) Cc1ccc(C2(COC(=O)C(C)C)CO2)c(OC(=O)C(C)C)c1 (stereo not given)
15) COc1cccc(S(=O)(=O)Nc2ccc3c(c2)C(=O)N(C)[C@@H]2CC[C@H](CC(=O)O)O[C@@H]2CO3)c1

| assay / compound | 11 | 12 | 13 | 14 | 15 |
| --- | --- | --- | --- | --- | --- |
| Arrestin-AP2 inh | -1.2 | 8.4 | -4.5 | 5.3 | / |
| Rce1 inh | i | / | / | + | / |
| UUG fidelity | -3.6 | -18.0 | -7.5 | -2.7 | 8.1 |
| Tb MetRS inh | -0.4 | -0.1 | -0.6 | -2.9 | / |
| DSG3 Ab inh | 98.7 | 75.8* | 95.3 | / | / |

16) CCN(CC)c1ccc(C(=O)c2ccccc2C(=O)O)c(O)c1
17) COc1ccc(NC(=O)N(C)C[C@H]2OCCCC[C@@H](C)Oc3ccc(NC(=O)CCC(F)(F)F)cc3C(=O)N([C@@H](C)CO)C[C@H]2C)cc1
18) CN1C(=O)/C(=C2\SC(=S)N(CCCCCC(=O)O)C2=O)c2ccccc21
19) O=C(O)CCN1C(=O)/C(=C2\C(=O)N(Cc3ccc(F)cc3)c3ccccc32)SC1=S
20) CCN(CC)CCCNc1cc(C)nc2cc(-c3cccs3)nn12

| assay / compound | 16 | 17 | 18 | 19 | 20 |
| --- | --- | --- | --- | --- | --- |
| Arrestin-AP2 inh | -1.1 | / | 3.5 | -0.5 | 44.0 |
| Rce1 inh | + | / | i | / | + |
| UUG fidelity | -10.2 | 12.7 | -10.7 | -4.2 | / |
| Tb MetRS inh | 0.5 | / | 0.1 | -0.4 | -1.1 |
| DSG3 Ab inh | 108.6 | / | 45.4* | 99.9 | 93.5 |

21) O=C(N[C@@H]1CC[C@@H](CCNC(=O)C2CCOCC2)O[C@H]1CO)c1ccncc1
22) CC(CCc1ccccc1)NC(=O)c1nnc(Cc2ccc(Cl)cc2)o1 (stereo not given)
23) CCOc1ccc(NC(=O)c2ccc3c(c2)S(=O)(=O)N=C2CCCCCN23)cc1
24) C[C@H]1CN([C@@H](C)CO)C(=O)c2cc(NC(=O)Nc3ccc(F)cc3)ccc2O[C@H]1CN(C)C(=O)Nc1cccc2ccccc12
25) O=C1C=C(NCCc2cc(Br)c(O)c(Br)c2)C(=O)c2ncccc21

| assay / compound | 21 | 22 | 23 | 24 | 25 |
| --- | --- | --- | --- | --- | --- |
| Arrestin-AP2 inh | / | -8.5 | / | / | 12.4 |
| Rce1 inh | / | i | / | / | / |
| UUG fidelity | -14.8 | -29.2 | -11.0 | -7.5 | / |
| Tb MetRS inh | / | -0.8 | -0.2 | / | 0.5 |
| DSG3 Ab inh | / | -13.4* | 77.5* | / | 57.8* |

26) Cc1cccc(-c2oc3ccccc3c2-c2ccc3c(c2)OCO3)c1
27) Cc1cccc(-c2noc(-c3ccc4c(c3)OCO4)n2)c1
28) Cc1ccc(S(=O)(=O)Nc2ccc3c(c2)CC(=O)N([C@H](C)CO)C[C@@H](C)[C@@H](CN(C)C(=O)Nc2ccc4c(c2)OCO4)O3)cc1
29) CC(Nc1nc(-c2ccc(F)cc2)cs1)c1nc2cc(Cl)c(Cl)cc2n1CCCO (stereo not given)
30) CSc1ccc(C=NNc2ccc(S(=O)(=O)Nc3ccccc3C(=O)O)cc2[N+](=O)[O-])cc1

| assay / compound | 26 | 27 | 28 | 29 | 30 |
| --- | --- | --- | --- | --- | --- |
| Arrestin-AP2 inh | 4.5 | -5.7 | / | 1.7 | -13.3 |
| Rce1 inh | + | i | / | i | / |
| UUG fidelity | -13.7 | / | -1.8 | -11.2 | 0.2 |
| Tb MetRS inh | -0.1 | -0.1 | / | -0.3 | 0.3 |
| DSG3 Ab inh | 103.4 | 110.3 | / | 87.4* | 72.4* |

31) CCOc1cccc(C=NNc2ccc(S(=O)(=O)Nc3ccccc3C(=O)O)cc2[N+](=O)[O-])c1O
32) CCOc1ccc(C=NNc2ccc(S(=O)(=O)Nc3ccccc3C(=O)O)cc2[N+](=O)[O-])cc1
33) C[C@@H]1CN([C@H](C)CO)C(=O)c2cc(N(C)C)ccc2O[C@@H]1CN(C)C(=O)Nc1ccc(F)cc1
34) Cc1ccc(Cn2cc(C(=O)c3ccc(F)cc3)c(=O)c3cc4c(cc32)OCCO4)cc1
35) COc1ccc(Cn2cc(C(=O)c3ccccc3)c(=O)c3cc(OC)ccc32)cc1

| assay / compound | 31 | 32 | 33 | 34 | 35 |
| --- | --- | --- | --- | --- | --- |
| Arrestin-AP2 inh | 1.1 | 35.9 | / | 3.4 | 3.6 |
| Rce1 inh | / | / | / | i | i |
| UUG fidelity | -14.2 | -9.1 | -8.1 | 0.6 | -8.6 |
| Tb MetRS inh | -0.1 | -0.2 | / | -1.9 | -1.9 |
| DSG3 Ab inh | 118.3 | 89.4* | / | 0.5* | 103.4 |

36) CN1C(=O)c2cc(NC(=O)c3ccno3)ccc2OC[C@H]2O[C@@H](CC(=O)NC3Cc4ccccc4C3)CC[C@@H]21
37) C[C@H](CO)N1C[C@H](C)[C@@H](CN(C)C(=O)Nc2ccc(F)cc2)Oc2ccc(NC(=O)Cc3ccccc3)cc2C1=O
38) CO[C@@H]1CN(C)C(=O)c2ccc(NS(C)(=O)=O)cc2OC[C@@H](C)N(C(=O)C2CCCCC2)C[C@H]1C
39) Cc1ccc(S(=O)(=O)Nc2ccc3c(c2)C(=O)N([C@H](C)CO)C[C@H](C)[C@H](CN(C)Cc2ccc(C(F)(F)F)cc2)OCCCC[C@H](C)O3)cc1
40) O=C(Nc1nc(-c2ccccn2)cs1)c1ccc([N+](=O)[O-])o1

| assay / compound | 36 | 37 | 38 | 39 | 40 |
| --- | --- | --- | --- | --- | --- |
| Arrestin-AP2 inh | / | / | / | / | -3.4 |
| Rce1 inh | / | / | / | / | + |
| UUG fidelity | 31.0 | 3.0 | 8.6 | 5.4 | -58.8 |
| Tb MetRS inh | / | / | / | / | -0.8 |
| DSG3 Ab inh | / | / | / | / | 93.6 |

41) Cc1ccc(C(=O)Nc2nc(-c3ccccn3)cs2)o1
42) COc1ccccc1/C=C/C(=O)OC(C)CN1CCCCC1 (stereo not given)
43) O=C(O)c1cc(-c2ccc(N3CCOCC3)cc2)nn1-c1ccccc1Cl
44) O=C(O)c1cc(-c2ccc(N3CCOCC3)cc2)nn1-c1ccc(F)cc1F
45) COc1ccccc1N(CC(=O)NCc1ccco1)S(=O)(=O)c1ccc(C)cc1

| assay / compound | 41 | 42 | 43 | 44 | 45 |
| --- | --- | --- | --- | --- | --- |
| Arrestin-AP2 inh | -2.2 | 28.2 | 5.5 | 13.4 | -5.0 |
| Rce1 inh | i | i | i | + | i |
| UUG fidelity | / | -13.4 | / | / | -4.8 |
| Tb MetRS inh | -0.2 | -1.1 | 0.5 | -0.5 | -0.1 |
| DSG3 Ab inh | 89.8 | 89.4* | 100.1 | 98.8 | -59.7* |

46) Cc1noc(C)c1NC(=O)N(C)C[C@H]1Oc2ccc(NS(C)(=O)=O)cc2C(=O)N([C@@H](C)CO)C[C@@H]1C
47) Brc1ccc(C2Nc3cccc4cccc(c34)N2)o1
48) Cc1nc(-c2ccc(S(=O)(=O)Nc3cccc(Cl)c3)cc2)co1
49) CSc1cccc(NS(=O)(=O)c2ccc(-c3coc(C)n3)cc2)c1

| assay / compound | 46 | 47 | 48 | 49 |
| --- | --- | --- | --- | --- |
| Arrestin-AP2 inh | / | 54.3* | -4.8 | 5.4 |
| Rce1 inh | / | i | i | i |
| UUG fidelity | -20.2 | -11.4 | -27.2 | -23.5 |
| Tb MetRS inh | / | -0.3 | -0.3 | 0.2 |
| DSG3 Ab inh | / | 102.9 | 59.2* | 3.0* |
